Experimental data published in patent publication US20120115806A1, “Antitumor Combination Including Cabazitaxel and Capecitabine” (SANOFI, priority 2009, published 2012).

Test system: patients with metastatic breast cancer previously treated with anthracyclines and taxanes
Settings: cabazitaxel (D1) in combination with capecitabine (twice a day, D1-14)

4α-acetoxy-2α-benzoyloxy-5β,20-epoxy-1β-hydroxy-β,10β-dimethoxy-9-oxotax-11-en-13α-yl (2R,3S)-3-tert-butoxycarbonylamino-2-hydroxy-3-phenylpropionate [cabazitaxel]
maximal administered dose (MAD): 25 mg/m^2 | recommended dose (RD) (highest dose at which less than 33% of patients exhibited a DLT): 20 mg/m^2
